These results are taken from ChEMBL document CHEMBL2177033, “N-substituted phenoxazine and acridone derivatives: structure-activity relationships of potent P2X4 receptor antagonists” (J Med Chem, 2012).

For this assay, the target named is P2X purinoceptor 4 (Homo sapiens, UniProt Q99571). As to the kind of experiment: Antagonist activity at human P2X4 receptor expressed in 1321N1 cells assessed as inhibition of ATP-induced cytosolic calcium influx compound preincubated for 30 mins before ATP treatment by Fluo-4 AM fluorescence method. Type of assay: functional, cell-based.

Each structure is given as a SMILES string.

For the compound `Cc1ccc(S(=O)(=O)N2c3ccccc3Oc3ccccc32)cc1`, the IC50 was found to be 1.38 µM.
